Source: patent publication US20030069295A1, “Use of histamine H3 receptor inverse agonists for the control of appetite and treatment of obesity” (Gliatech, Inc., priority 2001, published 2003)

Chains of the proteins cited; added tags and fusions are not shown. Lines headed by an entry give the natural chain unless they say otherwise; changes in a name come on top.
UniProt Q9QYN8: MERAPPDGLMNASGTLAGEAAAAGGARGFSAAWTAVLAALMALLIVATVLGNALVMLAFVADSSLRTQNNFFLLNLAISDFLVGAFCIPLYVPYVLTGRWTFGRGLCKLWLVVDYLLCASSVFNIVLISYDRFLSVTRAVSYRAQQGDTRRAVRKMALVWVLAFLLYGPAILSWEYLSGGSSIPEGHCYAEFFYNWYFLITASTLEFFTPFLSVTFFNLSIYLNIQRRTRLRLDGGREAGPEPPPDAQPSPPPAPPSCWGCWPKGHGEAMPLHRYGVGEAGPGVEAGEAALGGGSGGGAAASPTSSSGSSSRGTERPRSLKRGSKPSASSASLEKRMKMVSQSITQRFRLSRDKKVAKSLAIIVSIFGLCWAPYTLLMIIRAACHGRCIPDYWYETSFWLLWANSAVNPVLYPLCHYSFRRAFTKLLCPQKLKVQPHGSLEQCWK

Biological target: T1, Histamine H3 receptor (Rattus norvegicus, UniProt Q9QYN8)
T1 construct: The cerebral cortical tissues were harvested and frozen on dry ice; from tissue; host or cells: cerebral cortex membranes of male Sprague-Dawley rats
Assay: Histamine H3 receptor binding analysis, [3H]-Nα-methylhistamine competition in rat cerebral cortical membranes, with and without GTPγS

- Ki (GTPγS-treated receptor preparation (G-protein uncoupled)): 36.7 nM
- Ki Ratio (−/+) (Ki without GTPγS / Ki with GTPγS): 3.5
- Ki (untreated receptor preparation (mixture of coupled and uncoupled H3 receptors)): 129 nM
SMILES: O=C(CCCCC1CCCCC1)N1CCC(c2c[nH]cn2)CC1 [Compound 5, 4-(N-(5-cyclohexylpentan-1-one-1-yl)piperidin-4-yl)imidazole]
